Results: patent publication US20240408226A1, “ANTIBODY DRUG CONJUGATE INTERMEDIATE CONTAINING SN38 AND ITS PREPARATION METHOD” (priority 2021, published 2024)
Marks after values point to notes of the source that are not given here.

What was measured:
[1] = system: BT474 cells; assay: Inhibitory effect of anti-Her2-drug conjugates on in situ breast cancer (BT474 in mammary fat pads); type: in vivo, female BALB/c nude mice; conditions: for Tumor volume (mm^3) D 21: D 21, BT474 tumours
[2] = system: NCI-N87 cells; assay: Inhibitory effect on NCI-N87 cells (CCK-8); type: cell-based; conditions: ADC-1 group vs ADC-17 group
[3] = system: HER2-positive metastatic breast cancer; conditions: 99 patients; cited from earlier work

| Substance | Inhibition of BT474 tumor growth ([1]; 5 mg/kg intravenously once a week) | Tumor volume (mm^3) D 1 ([1]; D 1, BT474 tumours, 5 mg/kg intravenously once a week) [mm^3] | Tumor volume (mm^3) D 21 ([1]; 5 mg/kg intravenously once a week, 5 mg/kg) | Tumor volume (mm^3) D 21 ([1]; 5 mg/kg intravenously once a week, listed as control group 2, 5 mg/kg) [mm^3] | Weight (g) D 1 ([1]; body weight of mice, D 1, 5 mg/kg intravenously once a week) [g] | Weight (g) D 21 ([1]; body weight of mice, D 21, 5 mg/kg intravenously once a week) [g] | Body weight compared with control group 1 ([1]; end of the experiment, vs normal saline) | Inhibitory effect on NCI-N87 cells (comparison in words) [2] | disease control rate [3] [%] | objective remission rate [3] [%] |
| --- | --- | --- | --- | --- | --- | --- | --- | --- | --- | --- |
| ADC-17: linker and toxin corresponding to CL2A-SN38, coupled with Heceptin; control ADC [reference compound] | significantly inhibited the BT474 tumor growth with comparable effects | 67.95 ± 15.73 | 49.17 ± 13.29** mm^3 | 49.17±13.29 | 18.73 ± 0.78 | 20.36 ± 0.90 | no significant difference in body weight | comparable inhibitory effect |  |  |
| Enhertu |  |  |  |  |  |  |  |  | 93.9 | 54.5 |
